PMC10818259, “Antioxidant and Inhibitory Activities of Filipendula glaberrima Leaf Constituents against HMG-CoA Reductase and Macrophage Foam Cell Formation” (Molecules, 2024)

Target: T1, HMG-CoA reductase (HMGR) (Homo sapiens, UniProt P04035)
T1 sequence (P04035 426-888 limits assumed): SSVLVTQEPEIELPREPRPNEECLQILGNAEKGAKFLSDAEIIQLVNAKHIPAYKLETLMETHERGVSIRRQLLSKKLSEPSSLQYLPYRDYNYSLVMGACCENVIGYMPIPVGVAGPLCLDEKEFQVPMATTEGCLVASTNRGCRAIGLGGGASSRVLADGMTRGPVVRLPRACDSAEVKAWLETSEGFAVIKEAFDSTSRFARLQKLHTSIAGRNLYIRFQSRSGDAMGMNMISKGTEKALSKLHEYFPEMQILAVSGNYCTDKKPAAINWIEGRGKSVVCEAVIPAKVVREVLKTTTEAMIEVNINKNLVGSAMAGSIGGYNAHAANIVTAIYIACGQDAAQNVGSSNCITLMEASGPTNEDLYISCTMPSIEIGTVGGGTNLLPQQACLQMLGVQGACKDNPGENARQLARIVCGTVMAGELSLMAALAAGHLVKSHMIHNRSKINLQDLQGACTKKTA
Assay: HMG-CoA reductase (HMGR) inhibition assay, NADPH oxidation at 340 nm
Assay type: biochemical
Conditions: isolates and pravastatin; mean ± SD, n = 3
Method: The HMGR activity assay was optimized using a 96-well microplate reader to measure nicotinamide adenine dinucleotide phosphate (NADPH) oxidation during enzyme turnover. Each well was loaded with a mixture comprising 89 μL of 50 mM sodium phosphate buffer (pH 6.8), 0.8 mM NADPH, and 2 μg of the enzyme (2–8 units/mg). To initiate the reaction, 1 μL of the test sample and 10 μL of 0.8 mM HMG-CoA were introduced to the well. As a positive control, 10 μM pravastatin was utilized, while blank DMSO served as the negative control. The activity of HMGR was assessed by monitoring the reduction in NADPH absorbance at 340 nm for a duration of 900 s at 37 °C.

With CC[C@H](C)C(=O)O[C@H]1C[C@H](O)C=C2C=C[C@H](C)[C@H](CC[C@@H](O)C[C@@H](O)CC(=O)O)[C@H]21 [Pravastatin, reference compound] as the molecule, how does the IC50 read?
The IC50 was 410 ± 50 nM.
